Experimental data reported in paper PMC6298601 (Biochemical pharmacology, 2018).

The chains behind the UniProt entries cited, without tags or fusion partners.
UniProt P27338, whole entry: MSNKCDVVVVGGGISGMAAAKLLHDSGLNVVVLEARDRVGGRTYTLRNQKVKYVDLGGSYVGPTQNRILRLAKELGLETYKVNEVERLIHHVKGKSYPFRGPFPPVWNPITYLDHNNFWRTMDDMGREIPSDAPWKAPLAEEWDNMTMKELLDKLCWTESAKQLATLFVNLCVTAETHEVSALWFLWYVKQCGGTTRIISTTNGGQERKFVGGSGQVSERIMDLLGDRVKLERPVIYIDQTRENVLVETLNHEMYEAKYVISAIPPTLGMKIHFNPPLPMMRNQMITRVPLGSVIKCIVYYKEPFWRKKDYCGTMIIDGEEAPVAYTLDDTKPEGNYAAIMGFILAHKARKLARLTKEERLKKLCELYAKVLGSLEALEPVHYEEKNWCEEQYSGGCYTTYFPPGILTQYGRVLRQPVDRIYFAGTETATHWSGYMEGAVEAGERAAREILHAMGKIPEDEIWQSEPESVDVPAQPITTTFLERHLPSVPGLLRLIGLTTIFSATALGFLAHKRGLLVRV

How the values were obtained:
recombinant human MAO-B [1] = target: T1, recombinant human MAO-B (Homo sapiens, UniProt P27338); type: biochemical; settings: Lineweaver-Burk analysis and dialysis
recombinant human MAO-B [2] = target: T1, recombinant human MAO-B; type: binding; settings: equilibrium dialysis overnight

NNCCc1ccccc1 [Phenelzine, phenelzine sulfate, reference compound]
MAO-B Type of Inhibition (recombinant human MAO-B [1]): Mixed / Irreversible | nature of binding with MAO-B (reversibility) (recombinant human MAO-B [2]): irreversible inhibition/binding

Structures can show the parent of a compound that is named as a salt.
